## Yeast mating assay 2: variants of the scFv Ab-95

Binding partner: SARS-CoV-2 spike HR2 peptide, sequence PDVDLGDISGINAS.

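The parent was found by panning a naive human phage display library on the peptide. The library (AAYL52) carries one to three amino acid substitutions per variant, with no insertions or deletions. The assay is AlphaSeq: two haploid yeast populations carry antibody and antigen on their surface. Mating (16 h, 30 °C) was followed by selection of diploids and sequencing of their barcodes. A regression on co-assayed BCL2-family reference pairs converts the normalised counts of each replicate to an apparent Kd. The assay was run in three technical replicates.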

Parent: Ab-95, a human scFv built as VH, a 15-residue (Gly4Ser)3 linker, VL. Only the CDRs of the light chain vary.
VH: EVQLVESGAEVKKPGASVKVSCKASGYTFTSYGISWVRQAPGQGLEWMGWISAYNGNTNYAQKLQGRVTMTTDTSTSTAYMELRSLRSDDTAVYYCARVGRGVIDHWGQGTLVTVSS
VL: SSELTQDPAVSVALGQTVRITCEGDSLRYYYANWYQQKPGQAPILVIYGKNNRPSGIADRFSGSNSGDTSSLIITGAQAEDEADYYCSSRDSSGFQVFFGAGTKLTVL

Positions count from residue 1 of the parent VL; N51Y puts Y in place of N.
The read-out is the apparent dissociation constant on a log10 scale (nM): the lower, the stronger.
Where no diploid with the target was found in that replicate, the entry reads "n.d.": below detection, most likely a poor binder, though not proof of it.
Empty control strains, which show no peptide, gave a signal in 28% of pairings with library AAYL52; the median was 3.91 and 95% of these signals were weaker than 2.90. No background was subtracted.

| log10 Kd, replicates | changes |
|---|---|
| 5.41 3.56 n.d. | N51Y+S89D+D91C |
| n.d. 5.32 n.d. | D25G+G49I+S88I |
| 5.29 5.47 4.28 | N33W+N52Y+F98G |
| 3.26 2.86 n.d. | S26R+Y30D+G94I |
| n.d. 4.60 3.74 | P54C+S92F+Q96M |
| 2.77 2.20 1.54 | S26R+N52E+S55I |
| n.d. n.d. n.d. | E23C+Y30E+D91F |
| n.d. n.d. n.d. | S26T+Y31I+D91P |
| 2.76 3.00 2.36 | N51Q+P54A+S89P |
| 2.60 2.84 2.60 | Y29T+D91H |
| 3.53 3.65 3.99 | P54C+F98T |
| 3.32 3.90 2.71 | G24C+V97L |
| 2.56 2.77 2.44 | E23D+Q96D |
| 3.71 5.78 4.42 | Y29A+Y31L+R53Y |
| 2.97 2.60 2.47 | Y29P+Y30D+Q96M |
| 2.89 2.37 2.56 | E23R+Y31K+N51F |
| 4.61 3.12 n.d. | S26H+R28C+R53Q |
| n.d. n.d. n.d. | R28N+P54K+S88N |
| 3.89 4.58 n.d. | G24F+N51Y+S93I |
| 3.33 4.05 3.89 | D25M+R28C+D91W |
| n.d. n.d. n.d. | E23P+R90Q+V97C |
| n.d. n.d. n.d. | Y29K+S55R+S89R |
| 2.96 4.18 3.54 | Y29E+N52R+S92K |
| 1.33 1.28 0.88 | D25H+Y29L+Y30N |
| 2.95 3.25 3.56 | P54Y+S89P |
| 1.94 1.85 1.49 | S26F+Y29R+Y31E |
| 2.77 3.00 2.13 | R90I+D91P |
| 3.20 n.d. n.d. | G24R+Y31A+G49W |
| 3.43 4.47 4.72 | Y31I+S93P+V97E |
| 3.65 5.14 n.d. | G24Y+Y31T+V97P |

From the list, the first 3 with no signal in any replicate:

changes,"log10 Kd, replicates"
E23C+Y30E+D91F,n.d. n.d. n.d.
S26T+Y31I+D91P,n.d. n.d. n.d.
R28N+P54K+S88N,n.d. n.d. n.d.

Source: Engelhart et al. 2022 (doi:10.1038/s41597-022-01779-4), MIT Lincoln Laboratory and A-Alpha Bio; data file from the FLAb repository.